By UniProt entry, the sequences of proteins in these tests, tags left out. Residues count along the entry.
UniProt P81908, whole entry, looked up: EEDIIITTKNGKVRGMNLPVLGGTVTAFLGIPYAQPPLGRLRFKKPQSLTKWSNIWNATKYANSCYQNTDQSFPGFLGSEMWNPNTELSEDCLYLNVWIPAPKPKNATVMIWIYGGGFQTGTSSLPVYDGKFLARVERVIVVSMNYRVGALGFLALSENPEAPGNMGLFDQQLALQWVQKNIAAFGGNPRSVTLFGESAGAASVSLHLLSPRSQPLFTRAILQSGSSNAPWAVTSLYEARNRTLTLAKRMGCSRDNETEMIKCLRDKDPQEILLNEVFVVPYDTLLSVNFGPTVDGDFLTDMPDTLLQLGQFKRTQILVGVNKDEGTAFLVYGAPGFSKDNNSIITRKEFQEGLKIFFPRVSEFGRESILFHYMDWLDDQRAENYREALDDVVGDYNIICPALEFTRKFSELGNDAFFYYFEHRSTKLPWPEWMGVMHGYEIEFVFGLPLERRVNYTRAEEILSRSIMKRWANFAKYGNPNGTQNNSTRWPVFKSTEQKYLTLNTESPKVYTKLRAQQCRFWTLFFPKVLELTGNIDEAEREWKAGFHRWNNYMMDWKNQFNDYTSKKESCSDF
UniProt O42275, 24-633 limits assumed: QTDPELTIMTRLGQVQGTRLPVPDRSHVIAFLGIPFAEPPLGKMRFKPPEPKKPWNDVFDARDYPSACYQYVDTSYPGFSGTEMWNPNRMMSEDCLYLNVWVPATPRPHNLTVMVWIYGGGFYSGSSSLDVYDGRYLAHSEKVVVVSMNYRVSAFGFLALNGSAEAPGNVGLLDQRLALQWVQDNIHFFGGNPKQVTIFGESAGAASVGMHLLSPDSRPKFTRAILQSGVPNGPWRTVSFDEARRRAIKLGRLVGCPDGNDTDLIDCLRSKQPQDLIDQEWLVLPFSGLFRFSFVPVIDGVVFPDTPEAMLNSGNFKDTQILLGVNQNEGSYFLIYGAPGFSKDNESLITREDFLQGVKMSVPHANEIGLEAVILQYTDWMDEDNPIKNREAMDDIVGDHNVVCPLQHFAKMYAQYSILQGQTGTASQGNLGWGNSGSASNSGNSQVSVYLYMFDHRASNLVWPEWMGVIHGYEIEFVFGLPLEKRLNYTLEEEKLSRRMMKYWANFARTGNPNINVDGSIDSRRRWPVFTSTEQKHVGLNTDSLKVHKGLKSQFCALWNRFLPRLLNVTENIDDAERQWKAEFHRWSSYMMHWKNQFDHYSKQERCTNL

According to ChEMBL document CHEMBL4002583, “Amino derivatives of platanic acid act as selective and potent inhibitors of butyrylcholinesterase” (Eur J Med Chem, 2017):

Assays:
Cholinesterase = Cholinesterase (Equus caballus, UniProt P81908)
Acetylcholinesterase [1] = biological target: T1, Acetylcholinesterase (Electrophorus electricus, UniProt O42275); test: Uncompetitive inhibition of electric eel AChE using acetylthiocholine iodide as substrate preincubated for 20 mins followed by substrate addition measured every 1 min for 30 mins by Cornish-Bowden plot method
Acetylcholinesterase [2] = biological target: T1, Acetylcholinesterase

Question: How did the Ki (Cholinesterase) turn out when COC(=O)[C@]12CC[C@@H](/C(C)=N\O)[C@@H]1[C@H]1CC[C@@H]3[C@@]4(C)CC[C@H](OC(C)=O)C(C)(C)[C@@H]4CC[C@@]3(C)[C@]1(C)CC2 was run?
Answer: Its Ki is greater than 40 µM.

Question: And the Ki (Acetylcholinesterase [1])?
Answer: Its Ki is 14 µM.

Question: And the Ki (Acetylcholinesterase [2])?
Answer: Its Ki is 6.51 µM.

Question: Which results are given for CC(=O)O[C@H]1CC[C@]2(C)[C@H]3CC[C@@H]4[C@H]5[C@H](/C(C)=N/O)CC[C@]5(C(=O)O)CC[C@@]4(C)[C@]3(C)CC[C@H]2C1(C)C?
Answer: Ki (Cholinesterase): > 40 µM; Ki (Acetylcholinesterase [2]): 16.7 µM

Question: What does the source list for COC(=O)[C@]12CC[C@@H](/C(C)=N/O)[C@@H]1[C@H]1CC[C@@H]3[C@@]4(C)CC[C@H](OC(C)=O)C(C)(C)[C@@H]4CC[C@@]3(C)[C@]1(C)CC2?
Answer: Ki (Cholinesterase): > 10 µM; Ki (Acetylcholinesterase [1]): 16.4 µM; Ki (Acetylcholinesterase [2]): 6.96 µM
